{"source": "patent US20210205260A1", "about": "“MP53 RESCUE COMPONDS AND METHODS OF TREATING A P53 DISORDER” (priority 2018, published 2021)", "format_in_all_cases": "cell-based, human", "key": {"[1]": {"system": "PUMA, BAX, PIG3, p21, MDM2", "experiment": "Immunoblotting of p53 downstream proteins", "settings": "in about 48 hours"}, "[2]": {"system": "p53 targets MDM2, PIG3, PUMA, CDKN1A, BAX", "experiment": "Real time qPCR of p53 downstream mRNA", "settings": "in about 24 hr"}, "[3]": {"system": "NCI60 cell lines", "experiment": "NCI60 cell panel growth inhibition (GI50) profile, DTP / CellMiner", "settings": "GI50 retrieved by CellMiner; p53 status from IARC TP53 database"}}, "data": [{"substance": "potassium arsenite", "values": [{"measurement": "production of downstream p53 protein (PUMA, BAX, PIG3, p21, MDM2)", "setting": "[1]", "result": "increase production of downstream p53 protein"}, {"measurement": "production of p53 downstream mRNA (MDM2, PIG3, PUMA, CDKN1A, BAX)", "setting": "[2]", "result": "increase the production of p53 downstream mRNA"}, {"measurement": "selectivity of growth inhibition in the NCI60 panel by p53 status (in words)", "setting": "[3]", "result": "selectively targets Structural mp53s"}]}]}
